This passage reports Ratio IC50 results from ChEMBL document CHEMBL4052828, “Discovery of 4-((7H-Pyrrolo[2,3-d]pyrimidin-4-yl)amino)-N-(4-((4-methylpiperazin-1-yl)methyl)phenyl)-1H-pyrazole-3-carboxamide (FN-1501), an FLT3- and CDK-Kinase Inhibitor with Potentially High Efficiency against Acute Myelocytic Leukemia” (J Med Chem, 2018).

Sequences of proteins named here, by UniProt entry; tags and fusion partners are left off. A change or cut given only in a name is not applied to a line headed by its entry.
UniProt P78396: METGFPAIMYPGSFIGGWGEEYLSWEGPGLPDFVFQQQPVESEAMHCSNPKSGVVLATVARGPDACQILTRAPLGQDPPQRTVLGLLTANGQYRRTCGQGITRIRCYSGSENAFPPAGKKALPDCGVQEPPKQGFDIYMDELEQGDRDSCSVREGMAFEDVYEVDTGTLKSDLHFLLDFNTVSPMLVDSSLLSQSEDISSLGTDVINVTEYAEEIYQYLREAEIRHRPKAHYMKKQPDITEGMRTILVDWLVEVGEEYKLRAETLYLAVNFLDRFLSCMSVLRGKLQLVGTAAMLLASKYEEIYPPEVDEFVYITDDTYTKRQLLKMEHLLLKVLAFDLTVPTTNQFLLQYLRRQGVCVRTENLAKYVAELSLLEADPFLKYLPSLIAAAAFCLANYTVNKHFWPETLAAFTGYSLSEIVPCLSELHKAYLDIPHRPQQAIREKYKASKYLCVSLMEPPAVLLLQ
UniProt P36888, whole entry: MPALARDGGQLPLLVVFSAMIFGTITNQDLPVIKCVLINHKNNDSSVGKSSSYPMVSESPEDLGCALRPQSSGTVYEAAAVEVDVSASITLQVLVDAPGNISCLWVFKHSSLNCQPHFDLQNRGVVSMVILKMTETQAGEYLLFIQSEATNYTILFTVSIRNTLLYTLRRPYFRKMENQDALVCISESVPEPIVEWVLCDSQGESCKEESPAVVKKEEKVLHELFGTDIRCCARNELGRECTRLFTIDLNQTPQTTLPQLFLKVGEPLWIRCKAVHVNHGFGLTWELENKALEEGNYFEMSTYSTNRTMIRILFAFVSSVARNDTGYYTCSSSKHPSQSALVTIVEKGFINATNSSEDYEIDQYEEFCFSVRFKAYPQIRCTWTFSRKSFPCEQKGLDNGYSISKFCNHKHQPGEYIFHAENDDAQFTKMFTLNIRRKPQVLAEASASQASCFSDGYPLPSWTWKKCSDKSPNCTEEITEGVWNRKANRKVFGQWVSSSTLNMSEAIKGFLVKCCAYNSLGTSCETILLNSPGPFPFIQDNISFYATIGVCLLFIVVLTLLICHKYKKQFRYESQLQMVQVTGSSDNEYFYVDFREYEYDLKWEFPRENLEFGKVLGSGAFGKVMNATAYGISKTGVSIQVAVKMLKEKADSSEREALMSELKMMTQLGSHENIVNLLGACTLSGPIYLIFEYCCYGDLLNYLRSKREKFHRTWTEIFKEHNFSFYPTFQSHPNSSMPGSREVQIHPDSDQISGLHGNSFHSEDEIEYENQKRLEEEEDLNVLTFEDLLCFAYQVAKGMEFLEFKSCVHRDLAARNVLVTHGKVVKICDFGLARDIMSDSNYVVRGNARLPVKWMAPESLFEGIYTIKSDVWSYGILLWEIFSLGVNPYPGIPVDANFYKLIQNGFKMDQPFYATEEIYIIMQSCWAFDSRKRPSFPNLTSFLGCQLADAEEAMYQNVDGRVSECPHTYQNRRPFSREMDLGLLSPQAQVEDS

In assay [1] the target is CDK2/Cyclin A1 (Homo sapiens) (UniProt P24941+P78396). The assay is described as follows: Potency index, ratio of AT7519 IC50 to test compound IC50 for human CDK2/Cyclin A1. It counts as protein-complex assay.
In assay [2] the target is Receptor-type tyrosine-protein kinase FLT3 (Homo sapiens, UniProt P36888). The assay can be described thus: Potency index, ratio of sorafenib IC50 to test compound IC50 for human FLT3.

For the molecule `O=C(Nc1ccc(CN2CCOCC2)cc1)c1n[nH]cc1Nc1ncnc2ccccc12`, the Ratio IC50 in assay [1] and in assay [2] was 10 throughout.
